The experiment has as its system E. coli. As to the kind of experiment: Incorporation of azide-containing unnatural amino acids into recombinant proteins expressed in E. coli. The note with it: methods of Kiick et al., 2000.

As to `C[C@H](NN=[N+]=[N-])C(=O)O`, the incorporation into polypeptides entry is “have not been successful to date”.
With homoazidoalanine the entry was “successfully incorporated into polypeptides”.

Values taken from patent US7939626B2, “Chemoselective ligation” (The Regents of the University of California, priority 2000, dated 2011).
